Bioassay records as filed in PubChem.
Compounds with a hit are over-represented: about 16% of the library has one in this group of screens.
uPA surface inh = blocks generation of uPA at the cell surface. cell surface uPA generation assay, qHTS. Potency, µM (highest dose often 38.3 µM), for inactives: at the highest dose activity change, negative = inhibition, most hits filed as inhibitors. 330,000 compounds, 0.31% hits. AID 540303; active means well fitted inhibition curve with a large enough effect; inconclusive means small, poorly fitted or top-dose-only effect; inactive means no such curve, though single readings can be large or run the other way; tested in mouse RAW 264.7 cells; further: potency means the concentration at half of the fitted maximal effect; on the % scale 0 is the no-effect control and ±100 the full control effect; nearly all actives have a fitted effect of over 55% in size
miR-21 reporter = miR-21 reporter, rising signal | AID 2288 | HeLa miR-21 FLuc reporter, luciferase, 48 h | 340,000 tested, under 10 active | Potency, µM (titrated, usually from 38.3 µM), for the others: at the top dose reporter change, positive = more light; active = well fitted rising curve with a large enough effect; inconclusive = small, poorly fitted or top-dose-only effect; inactive = no such curve, though single readings can be large or run the other way;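 also: % of control where 0% means no effect; miR-21 action dims this reporter so a rising signal means less miR-21 action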
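HeLa cells endogenously expressing miR-21, stably carrying CMV-driven firefly luciferase with a downstream miR-21 binding site, 2000 cells/well. Titrations up to approximately 40 uM, 48 hours; luciferase luminescence read.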
TDP1 block = blocks human tyrosyl-DNA phosphodiesterase 1 | recombinant TDP1, AlphaScreen DNA substrate cleavage | Q9NUW8 | Potency, µM (top dose mostly 130 µM), for inactives: top-dose activity change, negative = inhibition, usual class: inhibitors | 350,000 compounds, 0.28% hits; further: potency means the concentration at half of the fitted maximal effect; on the % scale 0 is the no-effect control and ±100 the full control effect; nearly all actives have a fitted effect of over 40% in size
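Here, a 5' biotin and 3' phosphotyrosine-FITC DNA oligonucleotide reports Tdp1 activity: intact substrate bridges AlphaScreen beads, while cleavage leaves a 3' phosphate and drops signal. All incubations at room temperature.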
DT40 TDP1 no CPT = qHTS for Inhibitors of human tyrosyl-DNA phosphodiesterase 1 (TDP1): qHTS in cells in absence of CPT. 420,000 compounds, 15% hits. AID 686978, 2013. Potency, µM (top dose mostly 46.2 µM), inactives show top-dose activity change, negative = growth inhibition, actives largely listed as inhibitors. DT40 Tdp1-/- hTDP1 cells, no CPT, ATP luminescence, 48 h; further: potency means the concentration at half of the fitted maximal effect; on the % scale 0 is the no-effect control and ±100 the full control effect; nearly all actives have a fitted effect of over 55% in size
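A cellular qHTS used chicken DT40 cells lacking endogenous Tdp1 but carrying stably transfected human TDP1. Compounds were applied without camptothecin, and cell growth kinetics were judged by ATP-dependent luminescence after ≥48 hr.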
TDP1 cell CPT = growth inhibition of DT40 Tdp1-/-;hTDP1 cells with camptothecin (screen for TDP1 inhibitors); chicken DT40 Tdp1-/-;hTDP1 cells + 20 nM CPT, ATP luminescence, 48 h; Potency, µM (titrated, usually from 46.2 µM), for the others: top-dose activity change, negative = growth inhibition, usual class: inhibitors; 420,000 compounds, 12% hits; further: potency means the concentration at half of the fitted maximal effect; on the % scale 0 is the no-effect control and ±100 the full control effect; nearly all actives have a fitted effect of over 55% in size
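Chicken DT40 Tdp1-/- cells stably complemented with human TDP1 were seeded at 400 cells/well in medium containing 20 nM camptothecin, exposed to pin-transferred compounds, and grown at 37 °C for at least 48 hr. Viability was read as ATP luminescence.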
* marks the source's active call; other numbers are inactive results; ? = inconclusive; . = not tested or not shown. Unless noted, the call rests on the fitted dose curve; in most records, active means well fitted curve in the direction sought with a large enough effect; inconclusive means small, poorly fitted or top-dose-only effect, or another doubt; inactive means no such curve, though single readings can be large; an effect the other way counts as inactive or inconclusive.

#1 COc1ccc(Cn2nnnc2C(c2cc3ccc(OC)cc3[nH]c2=O)N2CCCCCC2)cc1 (configuration not stated)
#2 COc1ccc2cc(C(c3nnnn3C(C)(C)C)N3CCc4ccccc4C3)c(=O)[nH]c2c1 (configuration not stated)
#3 Cc1cc2cc(C(c3nnnn3Cc3ccco3)N3CCc4ccccc4C3)c(=O)[nH]c2cc1C (configuration not stated)
#4 CC(=O)Nc1ccc2c(c1Br)Cc1ccccc1-2
#5 O=C(Nc1nccs1)OCc1ccccc1
#6 O=C(CCn1c(=O)oc2ccc(Cl)cc21)N1CCN(c2ccccc2)CC1
#7 COC(=O)c1ccccc1NC(=O)COC(=O)Cc1ccc(S(=O)(=O)N2CCOCC2)s1
#8 O=c1[nH]c2cc3c(cc2cc1C(c1nnnn1C1CCCC1)N1CCSCC1)OCCO3 (configuration not stated)
Assay by compound	1	2	3	4	5	6	7	8
uPA surface inh	0%	.	-10%	1%	-3%	4%	0%	2%
miR-21 reporter	-2%	5%	2%	.	.	-2%	.	4%
TDP1 block	4%	5%	5%	.	.	.	.	7%
DT40 TDP1 no CPT	23µM*	.	23µM*	-27%	8%	-16%	5%	18µM*
TDP1 cell CPT	16µM*	.	?	-7%	10%	-27%	-17%	23µM*

#9 CC(C)(C)n1nnnc1C(c1cc2cc3c(cc2[nH]c1=O)OCCO3)N1CCSCC1 (configuration not stated)
#10 COC(=O)C(NC(=O)c1ccccc1C)(Nc1ncc(S(=O)(=O)c2ccc([N+](=O)[O-])cc2)s1)C(F)(F)F (configuration not stated)
#11 COC(=O)C(NC(=O)c1ccc(F)cc1)(Nc1ncc(S(=O)(=O)c2ccc([N+](=O)[O-])cc2)s1)C(F)(F)F (configuration not stated)
#12 CCC(Cn1nnc2ccccc2c1=O)NC(=O)Nc1cccc(Cl)c1 (configuration not stated)
#13 CC1=CC(=C(c2ccc(N)cc2)c2ccc(N)cc2)C=CC1=N
#14 COc1ccc(-n2cc(C(=O)N(CCN(C)C)Cc3ccccc3)c3ccccc3c2=O)cc1
#15 CCOC(=O)c1ccc(OC(=O)c2cn(-c3cccc(OC)c3)c(=O)c3ccccc23)cc1
#16 CCCOc1ccc(OC(=O)c2cn(-c3ccc(OC)cc3)c(=O)c3ccccc23)cc1
Assay by compound	9	10	11	12	13	14	15	16
uPA surface inh	-16%	0%	1%	.	.	.	.	.
miR-21 reporter	-11%	18%	22%	18%	.	-9%	7%	2%
TDP1 block	3%	11%	10%	5%	.	5%	2%	2%
DT40 TDP1 no CPT	-15%	?	13µM*	?	3µM*	?	?	16µM*
TDP1 cell CPT	-23%	?	16µM*	-19%	2.7µM*	-27%	?	?

#17 COc1ccc(OC(=O)c2cn(-c3cccc(OC)c3)c(=O)c3ccccc23)cc1
#18 CCOC(=O)c1ccc(OC(=O)c2cn(-c3ccc(C)cc3)c(=O)c3ccccc23)cc1
#19 COc1ccc(-n2cc(C(=O)N(C)c3cc(C)ccc3OC)c3ccccc3c2=O)cc1
#20 CCOc1ccc(OC(=O)c2cn(-c3ccc(C)cc3)c(=O)c3ccccc23)cc1
#21 OCCC1CN(CCCc2ccccc2)CCN1Cc1ccccc1 (configuration not stated)
#22 CCOc1ccc(-n2cc(C(=O)Nc3ccc(Cl)cn3)c3cc(OC)c(OC)cc3c2=O)cc1
#23 CCOc1cc(N2CCOCC2)c(OCC)cc1NC(=O)CN1C(=O)NC(C)(c2ccc(OC)cc2)C1=O (configuration not stated)
#24 CC(C)C(=O)NC(=S)/C=C1/N(C)c2ccccc2C1(C)C
Assay by compound	17	18	19	20	21	22	23	24
uPA surface inh	.	.	.	.	3%	3%	8%	-2%
miR-21 reporter	-3%	4%	-1%	0%	-4%	-2%	.	3%
TDP1 block	5%	-1%	10%	7%	5%	8%	.	9%
DT40 TDP1 no CPT	?	?	21µM*	16µM*	-15%	-27%	9%	8.2µM*
TDP1 cell CPT	?	16µM*	?	?	-22%	2.9µM*	-6%	18µM*

#25 Cc1ccc(C(=O)NC(=S)/C=C2\N(C)c3ccccc3C2(C)C)cc1
#26 CN1/C(=C/C(=S)NC(=O)C2CCC2)C(C)(C)c2ccccc21
#27 CN1/C(=C\C(=O)c2cccnc2)C(C)(C)c2ccccc21
#28 CC(=O)/C=C1\N(C)c2ccc(C)cc2C1(C)C
#29 CN1/C(=C\C(=O)C(F)F)C(C)(C)c2ccccc21
#30 O=C(O)c1cc(-n2cccc2)ccc1N1CCOCC1
#31 O=C(Nc1nnc(S(=O)(=O)N2CCOCC2)s1)c1cccc(F)c1
#32 Cc1ccc(C)c(N2CCN(S(=O)(=O)c3ccc(-c4coc(C)n4)cc3)CC2)c1
Assay by compound	25	26	27	28	29	30	31	32
uPA surface inh	?	-8%	0%	-9%	5%	10%	-12%	.
miR-21 reporter	-11%	-9%	-33%	-4%	-1%	-3%	-48%	0%
TDP1 block	8%	7%	-2%	1%	4%	0%	-4%	8%
DT40 TDP1 no CPT	3.7µM*	18µM*	?	5.2µM*	-28%	1%	?	?
TDP1 cell CPT	8.2µM*	16µM*	-64%	6.5µM*	-7%	11%	12%	?

#33 O=C(O)c1ccc[nH]c1=S
#34 CCN(C1CCCCC1)S(=O)(=O)c1ccc(S(=O)(=O)N2CCN(CCC#N)CC2)cc1
#35 CN1/C(=C\C=N\NC(=O)c2ccc(O)cc2)C(C)(C)c2ccccc21
#36 COc1ccccc1/C=N/NC(=O)C(=O)Nc1ccccc1OC(F)(F)C(F)F
#37 O=C(N/N=C/c1cc(Br)ccc1O)C(=O)Nc1ccccc1OC(F)(F)C(F)F
#38 COc1cccc(/C=N/NC(=O)C(=O)Nc2ccccc2OC(F)(F)C(F)F)c1
#39 O=C(N/N=C/c1cc(Cl)ccc1O)C(=O)Nc1ccccc1OC(F)(F)C(F)F
#40 CC(C)(C)OC(=O)N1CCC(c2c(C(=O)Nc3ccc4c(c3)OCCO4)cnn2-c2ccc(F)cc2F)CC1
#41 Cc1cccc(-n2ncc(C(=O)Nc3ccc4c(c3)OCO4)c2C2CCN(C(=O)OC(C)(C)C)CC2)c1
#42 COc1ccc(NC(=O)c2cnn(-c3ccc(F)cc3F)c2C2CCN(C(=O)OC(C)(C)C)CC2)cc1Cl
#43 Cc1cccc(-n2ncc(C(=O)NCc3ccc4c(c3)OCO4)c2C2CCN(C(=O)OC(C)(C)C)CC2)c1
Assay by compound	33	34	35	36	37	38	39	40	41	42	43
uPA surface inh	5%	5%	-4%	2%	.	-10%	-11%	.	.	.	.
miR-21 reporter	1%	-5%	14%	-11%	17%	-12%	?	-1%	7%	26%	25%
TDP1 block	-3%	8%	8%	-1%	3%	-1%	8%	-1%	5%	3%	2%
DT40 TDP1 no CPT	-20%	-25%	18µM*	?	2.8µM*	-14%	1.8µM*	-108%	?	18µM*	?
TDP1 cell CPT	4%	-19%	21µM*	?	5µM*	-9%	2.1µM*	21µM*	18µM*	?	?

Exported tab-delimited: four of the compounds above
item	smiles	uPA surface inh	miR-21 reporter	TDP1 block	DT40 TDP1 no CPT	TDP1 cell CPT
37	O=C(N/N=C/c1cc(Br)ccc1O)C(=O)Nc1ccccc1OC(F)(F)C(F)F	.	17%	3%	2.8µM*	5µM*
38	COc1cccc(/C=N/NC(=O)C(=O)Nc2ccccc2OC(F)(F)C(F)F)c1	-10%	-12%	-1%	-14%	-9%
39	O=C(N/N=C/c1cc(Cl)ccc1O)C(=O)Nc1ccccc1OC(F)(F)C(F)F	-11%	?	8%	1.8µM*	2.1µM*
40	CC(C)(C)OC(=O)N1CCC(c2c(C(=O)Nc3ccc4c(c3)OCCO4)cnn2-c2ccc(F)cc2F)CC1	.	-1%	-1%	-108%	21µM*
